Reference: patent publication US6153740A, “cDNA encoding nucleoside transporter” (University of Alberta, priority 1997, dated 2000)

Key:
[1] = molecular target: T1, CNT1 (Rattus norvegicus, UniProt Q62674); test: inhibition of CNT1-mediated nucleoside (uridine, AZT, ddC) transport in Xenopus oocytes; type: cell-based; conditions: adenosine, cytidine, uridine>>guanosine, inosine
T1 sequence (Q62674 1-648): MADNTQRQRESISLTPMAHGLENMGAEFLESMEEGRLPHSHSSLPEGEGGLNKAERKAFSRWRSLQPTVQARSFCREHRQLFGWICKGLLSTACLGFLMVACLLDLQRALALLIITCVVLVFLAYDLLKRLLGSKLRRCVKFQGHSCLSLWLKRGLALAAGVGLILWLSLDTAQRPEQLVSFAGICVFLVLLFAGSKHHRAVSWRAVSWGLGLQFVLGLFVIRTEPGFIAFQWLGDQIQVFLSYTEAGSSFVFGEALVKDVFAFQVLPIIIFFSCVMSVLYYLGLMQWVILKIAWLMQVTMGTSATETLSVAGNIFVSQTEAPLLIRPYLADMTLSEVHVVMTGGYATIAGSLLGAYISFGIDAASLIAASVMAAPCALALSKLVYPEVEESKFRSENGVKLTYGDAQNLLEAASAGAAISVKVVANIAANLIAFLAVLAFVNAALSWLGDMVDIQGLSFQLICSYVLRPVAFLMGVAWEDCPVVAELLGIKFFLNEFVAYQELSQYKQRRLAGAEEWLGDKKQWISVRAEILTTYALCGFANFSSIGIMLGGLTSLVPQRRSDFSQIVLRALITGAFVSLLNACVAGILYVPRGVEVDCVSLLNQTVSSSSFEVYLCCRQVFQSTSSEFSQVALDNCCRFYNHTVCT
Procedure: (§1) Oocytes were injected with water or RNA transcribed in vitro from the nucleoside transporter cDNA (pQQH1). […] For panels c and d, the permeant concentration was 10 μM and competing nonradioactive nucleosides were present at a concentration of 1 mM.
(§2) Remaining template was removed by digestion with RQ1 DNase. Oocytes were treated with collagenase to remove follicular layers (Huang et al, 1993) and injected with 10 ng of pQQH1 cRNA or water. […] At the end of the incubation, extracellular label was removed by six rapid ice-cold washes in the appropriate transport buffer. Individual oocytes were dissolved in 5% SDS for quantitation of oocyte-associated ^3 H by liquid scintillation counting (LS 6000 IC, Beckman).

[2] = molecular target: T1, CNT1; conditions: xenopus oocytes, 0.5 h, 10 µM
Procedure: as §1
Oocytes injected with water or in vitro transcribed RNA from pQQH1 were incubated with radiolabeled permanent (10 μM) for 30 min (open columns) or 1 h (hatched columns) at 20° C. Each value represents the mean ±S. E. of 8-10 ooctyes.
as §2

SMILES: O=c1ccn([C@@H]2O[C@H](CO)[C@@H](O)[C@H]2O)c(=O)[nH]1 [uridine]
- selective inhibition of uridine and thymidine fluxes (rCNT1) [1]: selective inhibition
- expressed: basal flux ratio [2]: > 20,000
